How the values were obtained:
Type in all cases: cell-based
[1] = test system: cellular microtubules in HeLa cells; test: Quantitative immunoluminescent assay of the cellular microtubule content; conditions: Homo sapiens, 0.5 h, read-out: IC50, drug concentration able to reduce the amount of cellular microtubules by half
Experimental: 7500 HeLa cells were seeded in 96-well microplates (#655086, Greiner bio One, Courtaboeuf, France) in 100 µL of complete medium per well and then incubated at 37 °C in 5% CO2 for 24 h. Cells were then treated for 30 min at 37 °C with the compounds at concentrations ranging from 1 to 5000 nM (1 microplate per molecule, 1 concentration per column), with 0.1% DMSO used as […] control (6 wells per microplate). After medium aspiration, treated cells were permeabilized for 10 min using 100 µL per well of warmed (37 °C) OPT buffer (80 mM Pipes, 1 mM EGTA, 1 mM MgCl2, 0.5% Triton X-100, and 10% glycerol, pH 6.8). Cells were fixed overnight at room temperature using 100 µL per well of 4% formaldehyde (Sigma Aldrich, #252549, Saint-Quentin-Fallavier, France) in PBS. […] Then, cells were washed again with PBS and 100 µL of ECL substrate (#170-5061, Bio-Rad Laboratories inc., USA) were injected in each well using the FLUOstar OPTIMA Microplate Reader (BMG Lab technology, Champagny-sur-Marne, France). The luminescent signal was read immediately after ECL injection. IC50s, i.e., drug concentrations able to reduce the amount of cellular microtubules by half, were calculated for each independent experiment using GraphPad Prism software and are presented in the text as means ± SEM.

HeLa cells = test: Cell viability, PrestoBlue assay, HeLa; conditions: Homo sapiens, 48 h, read-out: GI50 (concentration causing 50% cell growth inhibition)
Experimental: (§1) Cell viability was analyzed using the colorimetric PrestoBlue assay (Gibco Invitrogen, #A13262, Carlsbad, CA, USA). Cells were seeded in 96-well microplates (#655077, Greiner, Courtaboeuf, France) at density of 2500 cells per well and allowed to adhere for 24 h before being treated for 48 h with the drugs at indicated concentrations or corresponding concentrations of DMSO as controls, in a final volume of 90 µL. After 48 h of treatment, 10 µL PrestoBlue was added to each well and cells were incubated for another 45 min. The absorbance of each well was measured using a FLUOstar microplate reader (Excitation: 544 nm; Emission: 580 nm, BMG Lab technology, Champagny/Marne, France). GI50s, i.e., drug concentrations able to reduce cell growth by half, were calculated for each independent experiment using GraphPad Prism software and are presented in the text as means ± SEM.

RPE-1 cells = test: Cell viability, PrestoBlue assay, RPE-1; conditions: Homo sapiens, RPE-1, 48 h, read-out: GI50 (concentration causing 50% cell growth inhibition)
Experimental: as §1

COc1cc2c(c(OC)c1OC)-c1ccc(OC)c(=O)cc1[C@@H](NC(C)=O)CC2 [colchicine]
IC50 [1]: 787 ± 81.7 nM | GI50 (HeLa cells): 9.17 ± 0.6 nM | GI50 (RPE-1 cells): 30 ± 1.73 nM
